# Data reported in PubChem BioAssay AID651994 (Sanford-Burnham Center for Chemical Genomics, 2013).
# Only a part is listed here, and it is no random draw. Activity calls are given as the source filed them.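 How the source made its calls: active means mean cytotoxicity at 5 µM above about 25% (limit read from the data); inactive means the rest.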
# Assay: cytotoxicity in Sufu-KO-LIGHT cells, confirmation, cytotoxicity control for Gli-SUFU antagonist project, cell-based, ATP luminescence, single concentration (AID 651994);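 further: cells exposed to compound overnight for roughly 16 to 18 hours; plate controls were DMSO wells with cells for no effect and medium without cells for full effect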
# Conditions: at 5 µM, active compounds read high
row,SMILES,cytotoxicity
1,N#C/C(=C\c1ccc(N(CCBr)CCBr)cc1)C(N)=O,inactive: 20.4%
2,CC(=O)NC(SC(=S)N(C)C)C(Cl)(Cl)Cl (stereo not drawn),active: 31.6%
3,CN1CCCC(OC(=O)C(c2ccccc2)c2ccccc2)C1 (stereo not drawn),inactive: 19.7%
